The values that follow are results of earlier work, collected in patent publication US10851096B2, “Aryl and heteroaryl amides for use as anti-proliferative, anti-thrombotic, and anti-viral agents” (Rutgers, The State University of New Jersey, priority 2016, dated 2020).

The target in the data set is T1, Mer (Homo sapiens, UniProt Q12866).
T1 sequence (Q12866 21-999): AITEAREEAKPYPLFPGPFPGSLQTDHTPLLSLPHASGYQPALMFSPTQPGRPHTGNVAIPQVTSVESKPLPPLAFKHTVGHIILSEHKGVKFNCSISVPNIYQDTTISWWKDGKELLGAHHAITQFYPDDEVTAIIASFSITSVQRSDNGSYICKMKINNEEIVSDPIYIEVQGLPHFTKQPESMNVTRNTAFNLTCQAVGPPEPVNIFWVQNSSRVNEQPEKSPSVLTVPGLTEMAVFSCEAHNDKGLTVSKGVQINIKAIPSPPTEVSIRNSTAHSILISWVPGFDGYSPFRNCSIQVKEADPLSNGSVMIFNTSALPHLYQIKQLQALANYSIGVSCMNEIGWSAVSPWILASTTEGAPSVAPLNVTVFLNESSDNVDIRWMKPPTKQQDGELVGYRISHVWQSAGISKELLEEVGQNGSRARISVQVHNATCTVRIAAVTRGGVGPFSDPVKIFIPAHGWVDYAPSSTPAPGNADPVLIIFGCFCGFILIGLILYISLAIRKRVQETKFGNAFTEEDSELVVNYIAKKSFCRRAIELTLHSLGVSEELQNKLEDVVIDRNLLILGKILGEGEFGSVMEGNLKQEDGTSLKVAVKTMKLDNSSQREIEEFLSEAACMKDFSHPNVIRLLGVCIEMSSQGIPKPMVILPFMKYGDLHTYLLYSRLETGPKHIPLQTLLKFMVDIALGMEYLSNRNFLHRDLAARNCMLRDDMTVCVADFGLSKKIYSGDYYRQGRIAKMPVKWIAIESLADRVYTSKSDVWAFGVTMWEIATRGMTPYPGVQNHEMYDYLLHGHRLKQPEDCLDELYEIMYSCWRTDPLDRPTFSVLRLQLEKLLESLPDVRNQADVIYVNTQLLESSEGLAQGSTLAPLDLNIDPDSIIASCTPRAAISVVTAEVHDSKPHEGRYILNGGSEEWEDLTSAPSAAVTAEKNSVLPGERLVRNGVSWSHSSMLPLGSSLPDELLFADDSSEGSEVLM
As to conditions: cited from earlier work.

On to `Nc1nc(Nc2ccc3c(c2)CC[C@@H](N2CCCC2)CC3)nn1-c1cc2c(nn1)-c1ccccc1CCC2` [BGB324], for which the IC50 is 0.7 µM.
